## Apparent affinities of Ab-14 variants for a coronavirus HR2 peptide

Target: peptide PDVDLGDISGINAS, taken from heptad repeat 2 (HR2) of SARS-CoV-2 spike.

Parent scFv Ab-14: VH joined to VL by a (GGGGS)3 linker. Changes lie in the light chain CDRs alone.
VH: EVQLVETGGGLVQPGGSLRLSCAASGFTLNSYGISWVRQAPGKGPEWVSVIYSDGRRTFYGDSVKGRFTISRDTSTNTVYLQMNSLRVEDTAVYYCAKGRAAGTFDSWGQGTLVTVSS
VL: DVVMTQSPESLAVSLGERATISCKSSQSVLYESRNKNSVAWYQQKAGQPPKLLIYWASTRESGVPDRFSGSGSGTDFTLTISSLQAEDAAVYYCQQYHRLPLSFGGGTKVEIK

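Designed CDR sequences, proposed from the first random library and measured here. Group labels follow the data file (Ctrl: baseline library sampled from a position-specific scoring matrix, with some repeated check sequences; GP: Gaussian process model; HC: hill climbing; Gen: genetic algorithm; Gibbs: Gibbs sampling; a sequence that several methods proposed may carry one label only). The scFvs were displayed on barcoded MATa yeast, the peptide on MATalpha yeast. Binding brings cells together so that they mate, and sequencing counts the barcode pairs among the diploids. Read counts were normalised to the haploid input and turned into Kd by a linear fit to BCL2-family pairs of known affinity, for each replicate. The assay was run in six technical replicates.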

Substitutions are numbered in sequence along the VL above, starting at 1 (not Kabat).
This list holds designs with at most six substitutions.
Affinities are written as log10 Kd with Kd in nM; a lower number is a better binder.
A pair that was not seen in that replicate is written "nd"; this usually means weak binding, but a binder can also be missed.
A sequence measured in both rounds can read differently, since the two assays cover different ranges.
Empty control strains, which show no peptide, gave a signal in 4% of pairings with all light chain designs; the median was 2.64 and 95% of these signals were weaker than 1.59. No background was subtracted.
The authors' rule: three or more of the six replicates give a measured affinity, fewer mean a poor binder.

| changes | group | replicates, log10 nM |
|---|---|---|
| S25A/Y31Q/E32P/W56Q | Ctrl | 0.23 0.28 0.54 0.22 0.13 0.39 |
| S25L/V29M/W56N/T59E | GP_Gen | -0.14 -0.20 -0.31 -0.43 -0.28 -0.16 |
| R60C/E61S/S62M/P101L | Ctrl | nd nd nd nd nd nd |
| S25I/V29M/L30E/K36V/W56Y/S62L | GP_Gibbs | 0.85 0.43 0.46 0.81 0.30 0.72 |
| S25L/S26E/V29H/L30N/W56N | GP_HC | -0.13 -0.11 -0.12 -0.17 -0.33 -0.28 |
| V29H/L30V/Q96Y | Ctrl | nd nd nd nd nd nd |
| S25L/S33Q/W56S | GP_Gen | 0.10 -0.15 -0.29 -0.30 -0.07 0.06 |
| S25F/V29D/W56G/T59Q | GP_Gen | -0.31 -0.36 -0.60 -0.60 -0.48 -0.35 |
| S25F/S26E/V29T/W56N | GP_Gen | -0.03 0.13 0.01 0.06 -0.01 0.07 |
| S25F/S28W/V29W/N35T/W56N/T59Y | GP_HC | 0.42 0.28 0.19 0.30 0.35 0.49 |
| S25F/N35T/W56N/Q96N | GP_HC | 0.30 0.12 -0.07 -0.21 0.10 0.07 |
| S25L/Y31M/W56E/S62E | GP_Gen | 0.33 0.09 -0.10 0.02 0.08 -0.06 |
| K24L/Y31D/R34A/S38M/W56E/S62C | Ctrl | 1.22 1.87 1.04 1.41 1.32 1.21 |
| S26Q/L30D | Ctrl | 1.49 1.29 1.43 2.63 1.87 1.79 |
| S25V/H98M/R99Q | Ctrl | 0.53 0.57 0.17 0.14 0.04 0.18 |
| S25L/V29Q/W56E/T59Q | GP_Gen | 0.40 0.21 -0.13 0.05 0.01 0.09 |
| S25F/S28W/V29D/N35T/W56N | GP_HC | 0.12 0.08 0.11 -0.32 -0.05 0.20 |
| K24C/Q27K/W56S/R99V | Ctrl | nd 1.47 2.52 1.20 1.63 1.22 |
| V29M/S33Y | Ctrl | nd nd nd nd nd nd |
| S25V/S26Y/Q27P/V29Y/W56N | GP_HC | 0.96 0.50 0.33 0.28 0.39 0.50 |
| S25H/S28G/W56G | GP_HC | 0.12 -0.10 -0.20 -0.21 -0.21 0.13 |
| S25F/S26Q/Q27W/V29W/W56N/H98W | GP_Gibbs | 0.32 0.00 0.18 -0.08 -0.04 0.01 |
| S25H/K36W/W56G | Ctrl | -0.57 -0.19 -0.34 0.36 -0.02 -0.26 |
| S25M/S26Q/W56A | Ctrl | -0.22 -0.46 -0.31 -0.55 -0.25 -0.32 |
| Q27G/V29Q/K36S/W56H/Q96D | GP_Gibbs | 0.34 0.55 nd -0.44 -0.48 0.50 |
| S25Q/S33D/W56N/T59Q | GP_Gen | nd 2.65 1.60 2.22 2.72 2.87 |
| S25Q/S26Q/S33G/W56D | GP_HC | 0.12 -0.34 -0.03 -0.30 -0.42 -0.01 |
| Q27P/L30P/R34H/W56N/E61M | GP_HC | 0.56 0.46 0.43 0.32 0.41 0.50 |
| S25V/L30D/S38N/W56D | GP_Gen | -0.08 -0.74 -0.56 -1.08 -0.83 -0.68 |
| S26G/S28G/E32Q/W56G | GP_HC | 0.44 0.31 0.38 0.31 0.56 0.67 |
| S25V/V29E/W56N/S103M | GP_Gen | -0.48 -0.59 -0.49 -0.54 -0.58 -0.20 |
| S58V | Ctrl | nd nd nd nd nd nd |
| S25M/S28M/L30E | Ctrl | nd nd nd nd nd nd |
| S25L/V29D/S33M/W56E/S58Q/S62Q | GP_Gibbs | -0.15 -0.10 -0.20 -0.39 -0.19 0.07 |
| S25F/V29Y/S38A/W56N | GP_Gen | -0.21 -0.30 -0.38 -0.24 -0.43 -0.25 |
| S25Y/Q27P/V29Y/W56Q/R99L | GP_HC | 0.01 0.17 -0.05 -0.23 0.07 0.05 |
| W56Q/T59L/H98S | Ctrl | 0.37 0.10 0.10 0.00 0.26 0.22 |

3 of these entries, quoted again:

changes	group	replicates, log10 nM
S25L/S33Q/W56S	GP_Gen	0.10 -0.15 -0.29 -0.30 -0.07 0.06
S25H/S28G/W56G	GP_HC	0.12 -0.10 -0.20 -0.21 -0.21 0.13
K24L/Y31D/R34A/S38M/W56E/S62C	Ctrl	1.22 1.87 1.04 1.41 1.32 1.21

The measurements come from Li et al. 2023 (doi:10.1038/s41467-023-39022-2) through the FLAb antibody collection.